Literature values in patent publication EP1903052A2, “APJ receptor ligands and uses thereof” (Faust Pharmaceuticals SA, priority 2006, dated 2008).

The chains behind the UniProt entries cited, without tags or fusion partners.
UniProt Q9JHG3, whole entry: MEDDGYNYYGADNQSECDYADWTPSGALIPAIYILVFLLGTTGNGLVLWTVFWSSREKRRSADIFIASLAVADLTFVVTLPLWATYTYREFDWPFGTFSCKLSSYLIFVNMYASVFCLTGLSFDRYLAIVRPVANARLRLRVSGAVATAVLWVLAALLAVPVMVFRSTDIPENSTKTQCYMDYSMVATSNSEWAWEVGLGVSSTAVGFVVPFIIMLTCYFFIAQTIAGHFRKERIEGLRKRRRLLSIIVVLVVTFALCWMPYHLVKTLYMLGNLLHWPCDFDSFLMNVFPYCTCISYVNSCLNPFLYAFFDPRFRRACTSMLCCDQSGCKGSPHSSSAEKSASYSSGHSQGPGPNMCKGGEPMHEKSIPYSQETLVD

How the values were obtained:
[1] = target: rat APJ receptor (Rattus norvegicus, UniProt Q9JHG3); conditions: cited from earlier work
[2] = target: rat apelin receptor-EGFP (Rattus norvegicus, UniProt Q9JHG3); conditions: cited from earlier work
[3] = 100 nM, Reaux et al., J. Neurochem., 2001

**Q.** For `CSCC[C@H](NC(=O)[C@@H]1CCCN1C(=O)CNC(=O)[C@H](CCCCN)NC(=O)[C@H](Cc1cnc[nH]1)NC(=O)[C@H](CO)NC(=O)[C@H](CC(C)C)NC(=O)[C@H](CCCNC(=N)N)NC(=O)[C@@H]1CCCN1C(=O)[C@H](CCCNC(=N)N)NC(=O)[C@H](CCC(N)=O)NC(=O)[C@H](CCCNC(=N)N)NC(=O)[C@H](CCCNC(=N)N)NC(=O)[C@H](Cc1ccccc1)NC(=O)[C@@H](N)CCCCN)C(=O)N1CCC[C@H]1C(=O)N[C@@H](Cc1ccccc1)C(=O)O`, which “forskolin-stimulated cAMP production” value [1, 3] is on record?
**A.** inhibit

**Q.** What about the IC50 ([1]; inhibition of cAMP production induced by forskolin, CHO cell line expressing the murine APJ receptor, De Mota et al., Neuroendocrinology, 2000) of the same compound?
**A.** 130 pM

**Q.** And the “internalization of the rat apelin receptor-EGFP” value [2, 3]?
**A.** intense internalization

**Q.** And the “internalisation of the APJ receptor” value ([2]; at concentrations of 10^-8 M, Reaux et al. 2001, El Messari et al. 2004)?
**A.** massive internalisation
